# Legend:
# [1] = Urine and feces excretion after oral modified formula ECa 233 capsules (LC–MS/MS); format: in vivo, human (healthy Thai volunteers); details: after oral dosing of 250 or 500 mg ECa 233
# Method: This was a single-center, with an open-label, two-sequence of dosages (250 and 500 mg), two-periods of study (single and multiple dose) conducted in fasting condition (Fig. 1). […] All blood samples were centrifuged at 4 °C, 3200 × g for 10 min. […] Feces were also collected from one of the volunteers for detecting the possible presence of any eliminated compounds. Feces samples were collected each time that a volunteer defecated on day 1-3, 4-6 and 7-9 during the study period. These samples were immediately fixed with methanol and prepared by our previously described method of protein precipitation. […] Plasma, urine and fecal samples were then stored at - 80 °C until analysis. Sample preparation was performed by protein precipitation with two internal standards (glycerrhizin and […]) to correct the quantitative analysis of parent compounds and of their metabolites. Briefly, 200 μL of methanol was added followed by vortex mixing with 50 μL of each sample for 10 min and then centrifuged at 12,000 × g, 4 °C, 10 min. […] The MS/MS system was operated using an ESI source in negative mode with MRM.
# [2] = Clinical pharmacokinetics in plasma (LC–MS/MS, non-compartmental analysis) after oral modified formula ECa 233 capsules; format: in vivo, human (healthy Thai volunteers); details: for Cl/F / Vd/F / t1/2 / AUC / Cmax: mean ± SD; for Tmax: median [IQR]
# Method: This was a single-center, with an open-label, two-sequence of dosages (250 and 500 mg), two-periods of study (single and multiple dose) conducted in fasting condition (Fig. 1). […] The 250 mg of ECa 233 with 240 mL of drinking water were administered orally. […] All blood samples were centrifuged at 4 °C, 3200 × g for 10 min. […] Feces were also collected from one of the volunteers for detecting the possible presence of any eliminated compounds. Feces samples were collected each time that a volunteer defecated on day 1-3, 4-6 and 7-9 during the study period. These samples were immediately fixed with methanol and prepared by our previously described method of protein precipitation. After a 3-week washout period, all participants continued period 2 of the study, where they received a 500-mg dose of ECa 233, and sample collection procedures remained consistent with period 1 (Fig. 2). Plasma, urine and fecal samples were then stored at - 80 °C until analysis. For multiple oral dosing, participants continued to take 250 mg or 500 mg of ECa 233 every morning for 7 consecutive days. Then they had another set of blood and urine samples collected similar to the single dose study. The primary outcome was determination of pharmacokinetic parameters, including the profiles of the metabolites, and the secondary outcome was consideration of the safety profiles of ECa 233 after period 2 (end of the study). Sample preparation was performed by protein precipitation with two internal standards (glycerrhizin and […]) to correct the quantitative analysis of parent compounds and of their metabolites. Briefly, 200 μL of methanol was added followed by vortex mixing with 50 μL of each sample for 10 min and then centrifuged at 12,000 × g, 4 °C, 10 min. Quantitative determination of the parent compounds and their active metabolites in plasma and urine were carried out by using liquid chromatography tandem mass spectrometry (LC-MS/MS): LCMS-8060 (Shimadzu Corp. Japan) according to a previously validated and published bioanalytical method. […] The MS/MS system was operated using an ESI source in negative mode with MRM. For m/z transition; […] Non-compartmental analysis was applied to determine pharmacokinetic parameters and performed by PK solutions software (version 2.0). […] The apparent clearance (Cl/F) after oral administration was calculated as Cl/F = Dose/AUC, where F is the absolute oral bioavailability. The apparent volume of distribution (Vd/F) was estimated using Vd/F = Dose/(AUC × kel). The Cmax and Tmax were determined directly from the observed concentration-time curve.
# [3] = multiple dose oral, Day 7 (T0-72 h), ECa 233 250 mg daily, n=12
# [4] = multiple dose oral, Day 7 (T0-72 h), ECa 233 500 mg daily, n=11
# [5] = plasma, multiple dose oral, Day 7 (T0-72 h), ECa 233 250 mg daily, n=12
# [6] = plasma, multiple dose oral, Day 7 (T0-72 h), ECa 233 500 mg daily, n=11
# [7] = plasma, single dose oral, Day 1 (T0-24 h), ECa 233 250 mg, n=12
# [8] = plasma, single dose oral, Day 1 (T0-24 h), ECa 233 500 mg, n=11
substance,measurement,setting,value
Asiaticoside [ASS],time of highest cumulative contents in urine,[1],≤ 8 h
same,Cl/F,[2]; [3],284.8 ± 225.3 mL/min/kg
same,Vd/F,[2]; [3],155.55 ± 489.17 L/kg
same,t1/2,[2]; [3],10.37 ± 8.84 h
same,Cl/F,[2]; [4],508 ± 258.3 mL/min/kg
same,Vd/F,[2]; [4],458.14 ± 462.33 L/kg
same,t1/2,[2]; [4],9.35 ± 8.18 h
same,AUC,[2]; [5],114.98 ± 54.12 ng·h/mL
same,Cmax,[2]; [5],10.93 ± 4.60 ng/mL
same,Tmax,[2]; [5],1 [0.125] h
same,AUC,[2]; [6],106.82 ± 34.59 ng·h/mL
same,Cmax,[2]; [6],12.77 ± 2.87 ng/mL
same,Tmax,[2]; [6],1 [0.5] h
same,time after dosing at which Cmax was observed,"[2]; plasma, oral modified formula ECa 233 capsules",≤ 1 h
same,AUC,[2]; [7],25.20 ± 29.15 ng·h/mL
same,Cmax,[2]; [7],5.18 ± 3.43 ng/mL
same,Tmax,[2]; [7],1.25 [0.625] h
same,AUC,[2]; [8],176.59 ± 177.06 ng·h/mL
same,Cmax,[2]; [8],9.81 ± 3.53 ng/mL
same,Tmax,[2]; [8],1 [3.5] h

# Reference: article PMC7994819, “Pharmacokinetics and metabolomics investigation of an orally modified formula of standardized Centella asiatica extract in healthy volunteers” (Scientific Reports, 2021)
